Results taken from PMC12831531.

Target: gp34-M (soluble gp34 ectodomain with one cysteine-to-serine substitution) (HCMV AD169)
Test: SPR; BIAcore X100; gp34-M strep-FLAG captured (40 RU) on anti-strep Fab; hu4D5 IgG1 Fc variants injected; 1:1 binding kinetics

hu4D5 human IgG1 antibody with wild-type Fc
Kd: 7.3 nM
